Here are results for one compound from ChEMBL document CHEMBL5338779, “Discovery, Synthesis, and In Vitro Characterization of 2,3 Derivatives of 4,5,6,7-Tetrahydro-Benzothiophene as Potent Modulators of Retinoic Acid Receptor-Related Orphan Receptor γt” (J Med Chem, 2023).

Sequences of proteins named here, by UniProt entry; tags and fusion partners are left off. A change or cut given only in a name is not applied to a line headed by its entry.
UniProt P51449: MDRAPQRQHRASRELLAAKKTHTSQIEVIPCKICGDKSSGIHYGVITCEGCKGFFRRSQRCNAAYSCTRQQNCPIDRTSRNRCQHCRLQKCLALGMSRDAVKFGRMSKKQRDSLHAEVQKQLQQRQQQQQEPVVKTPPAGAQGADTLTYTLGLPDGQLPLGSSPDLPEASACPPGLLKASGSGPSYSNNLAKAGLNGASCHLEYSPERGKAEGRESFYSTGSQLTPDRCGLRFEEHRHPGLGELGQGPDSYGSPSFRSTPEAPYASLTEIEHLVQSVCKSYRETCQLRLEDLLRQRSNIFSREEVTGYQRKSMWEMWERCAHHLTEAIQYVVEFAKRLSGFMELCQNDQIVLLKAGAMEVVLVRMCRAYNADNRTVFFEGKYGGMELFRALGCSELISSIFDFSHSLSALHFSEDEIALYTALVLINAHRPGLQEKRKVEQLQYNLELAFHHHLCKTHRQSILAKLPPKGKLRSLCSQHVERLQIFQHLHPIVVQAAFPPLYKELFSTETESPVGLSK

The experiment concerns the target Nuclear receptor ROR-gamma (Homo sapiens, UniProt P51449). To be noted: HEK293T, filed as inverse agonist, dose 0.004-1000 nM.

The compound `CCc1ccc(N(CC(C)C)S(=O)(=O)c2ccc(OCC3CCOCC3)c(CO)c2)cc1` [GSK2981278] registered a deltaG of -11.2 kcal/mol.
